In article PMC9264368, “Structural Analysis and Development of Notum Fragment Screening Hits” (ACS Chemical Neuroscience, 2022):

Assays:
Notum [1] = molecular target: T1, Notum (Homo sapiens, UniProt Q6P988, C330S); test: biochemical
T1 sequence (Q6P988 81-451 C330S): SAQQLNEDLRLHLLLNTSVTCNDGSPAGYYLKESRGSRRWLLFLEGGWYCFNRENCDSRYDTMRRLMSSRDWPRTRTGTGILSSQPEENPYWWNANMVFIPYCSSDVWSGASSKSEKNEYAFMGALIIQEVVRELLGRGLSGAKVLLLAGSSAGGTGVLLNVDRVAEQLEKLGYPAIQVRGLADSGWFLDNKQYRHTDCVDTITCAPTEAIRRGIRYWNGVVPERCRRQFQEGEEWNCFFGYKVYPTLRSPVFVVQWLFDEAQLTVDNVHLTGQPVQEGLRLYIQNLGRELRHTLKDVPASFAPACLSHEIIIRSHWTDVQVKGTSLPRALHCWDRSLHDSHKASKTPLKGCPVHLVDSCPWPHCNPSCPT

Notum [2] = molecular target: T1, Notum

| IC50 (Notum [1]; IC50 (µM)) [µM] | IC50 (Notum [1]; Notum IC50) [µM] | Compound | IC50 (Notum [1]; Notum IC50, OPTS substrate, 10-point curves 30 nM to 1 mM, mean ± s.d. of N = 2–4 unless stated, Table 1 and figures) [µM] | LE (ligand efficiency) (Notum [2]; LE = 1.4(−pIC50)/HAC) | LLE (lipophilic ligand efficiency) (Notum [2]; LLE = pIC50 – clogP) | LE (Notum [2]; supplementary CSV) | LLE (Notum [2]; supplementary CSV) |
| --- | --- | --- | --- | --- | --- | --- | --- |
| > 1000 | > 1000 | CCC(=O)Nc1nc(C)cs1 [compound 3, N-(4-Methylthiazol-2-yl)propanamide] |  |  |  |  |  |
|  |  | c1ccn(-c2ccc(N3CCOCC3)cc2)c1 [compound 36] | 53 ± 18 | 0.34 | 1.4 | 0.34 | 1.4 |
